Legend:
human FASN [1] = molecular target: T1, human FASN (Homo sapiens, UniProt P49327); assay: FASN NADPH Consumption Assay; settings: read-out: ACTIVITY (IC50, FASN NADPH Consumption Assay, starred); human FASN purified from SKBR3 cells; starred symbols
Description: (§1) Human FASN protein (SEQ ID NO. 1) was purified from SKBR3 cells using procedures modified from those in Jayakumar et al. PNAS 1995, 92:8695-8699. SKBR3 cells were obtained from ATCC and grown in DMEM high glucose medium supplemented with 10% FBS, 1 μg/mL bovine pancreas insulin, 100 U/mL penicillin and 100 µg/mL streptomycin. The confluent cells were trypsinized and washed three times with PBS buffer before frozen in liquid N2 and stored at −80° C. Frozen cells were thawed on ice and resuspended in lysis buffer (25 mM Tris-HCl, pH 7.0, 15 mM NaCl, 1 mM EDTA, and 1 mM DTT) with protease inhibitors. […] Each fraction was analyzed by SDS-PAGE and FASN NADPH consumption assay. […]
All chemicals were purchased from Sigma (St. Louis, Mo.). […] NADPH consumption was monitored kinetically by fluorescence (λEx=340 nm, λEm=460 nm) on an EnVision 2100 multilabel plate reader (Perkin Elmer, Waltham, Mass.). FASN enzyme activity (slope) in the presence of 4% DMSO was used as maximum control, whereas background (minimum control) was measured by omission of malonyl-CoA in the substrate mixture. […]
Compounds were assayed as inhibitors of human FASN using the above-described FASN Scintillation Proximity Flashplate Assay (IC50; nM) or FASN NADPH Consumption Assay (*) (IC50; nM). The corresponding activity of the isolated compound is also provided along with the measured mass (ES^+).

Chains of the proteins cited; added tags and fusions are not shown.
UniProt P49327, whole entry: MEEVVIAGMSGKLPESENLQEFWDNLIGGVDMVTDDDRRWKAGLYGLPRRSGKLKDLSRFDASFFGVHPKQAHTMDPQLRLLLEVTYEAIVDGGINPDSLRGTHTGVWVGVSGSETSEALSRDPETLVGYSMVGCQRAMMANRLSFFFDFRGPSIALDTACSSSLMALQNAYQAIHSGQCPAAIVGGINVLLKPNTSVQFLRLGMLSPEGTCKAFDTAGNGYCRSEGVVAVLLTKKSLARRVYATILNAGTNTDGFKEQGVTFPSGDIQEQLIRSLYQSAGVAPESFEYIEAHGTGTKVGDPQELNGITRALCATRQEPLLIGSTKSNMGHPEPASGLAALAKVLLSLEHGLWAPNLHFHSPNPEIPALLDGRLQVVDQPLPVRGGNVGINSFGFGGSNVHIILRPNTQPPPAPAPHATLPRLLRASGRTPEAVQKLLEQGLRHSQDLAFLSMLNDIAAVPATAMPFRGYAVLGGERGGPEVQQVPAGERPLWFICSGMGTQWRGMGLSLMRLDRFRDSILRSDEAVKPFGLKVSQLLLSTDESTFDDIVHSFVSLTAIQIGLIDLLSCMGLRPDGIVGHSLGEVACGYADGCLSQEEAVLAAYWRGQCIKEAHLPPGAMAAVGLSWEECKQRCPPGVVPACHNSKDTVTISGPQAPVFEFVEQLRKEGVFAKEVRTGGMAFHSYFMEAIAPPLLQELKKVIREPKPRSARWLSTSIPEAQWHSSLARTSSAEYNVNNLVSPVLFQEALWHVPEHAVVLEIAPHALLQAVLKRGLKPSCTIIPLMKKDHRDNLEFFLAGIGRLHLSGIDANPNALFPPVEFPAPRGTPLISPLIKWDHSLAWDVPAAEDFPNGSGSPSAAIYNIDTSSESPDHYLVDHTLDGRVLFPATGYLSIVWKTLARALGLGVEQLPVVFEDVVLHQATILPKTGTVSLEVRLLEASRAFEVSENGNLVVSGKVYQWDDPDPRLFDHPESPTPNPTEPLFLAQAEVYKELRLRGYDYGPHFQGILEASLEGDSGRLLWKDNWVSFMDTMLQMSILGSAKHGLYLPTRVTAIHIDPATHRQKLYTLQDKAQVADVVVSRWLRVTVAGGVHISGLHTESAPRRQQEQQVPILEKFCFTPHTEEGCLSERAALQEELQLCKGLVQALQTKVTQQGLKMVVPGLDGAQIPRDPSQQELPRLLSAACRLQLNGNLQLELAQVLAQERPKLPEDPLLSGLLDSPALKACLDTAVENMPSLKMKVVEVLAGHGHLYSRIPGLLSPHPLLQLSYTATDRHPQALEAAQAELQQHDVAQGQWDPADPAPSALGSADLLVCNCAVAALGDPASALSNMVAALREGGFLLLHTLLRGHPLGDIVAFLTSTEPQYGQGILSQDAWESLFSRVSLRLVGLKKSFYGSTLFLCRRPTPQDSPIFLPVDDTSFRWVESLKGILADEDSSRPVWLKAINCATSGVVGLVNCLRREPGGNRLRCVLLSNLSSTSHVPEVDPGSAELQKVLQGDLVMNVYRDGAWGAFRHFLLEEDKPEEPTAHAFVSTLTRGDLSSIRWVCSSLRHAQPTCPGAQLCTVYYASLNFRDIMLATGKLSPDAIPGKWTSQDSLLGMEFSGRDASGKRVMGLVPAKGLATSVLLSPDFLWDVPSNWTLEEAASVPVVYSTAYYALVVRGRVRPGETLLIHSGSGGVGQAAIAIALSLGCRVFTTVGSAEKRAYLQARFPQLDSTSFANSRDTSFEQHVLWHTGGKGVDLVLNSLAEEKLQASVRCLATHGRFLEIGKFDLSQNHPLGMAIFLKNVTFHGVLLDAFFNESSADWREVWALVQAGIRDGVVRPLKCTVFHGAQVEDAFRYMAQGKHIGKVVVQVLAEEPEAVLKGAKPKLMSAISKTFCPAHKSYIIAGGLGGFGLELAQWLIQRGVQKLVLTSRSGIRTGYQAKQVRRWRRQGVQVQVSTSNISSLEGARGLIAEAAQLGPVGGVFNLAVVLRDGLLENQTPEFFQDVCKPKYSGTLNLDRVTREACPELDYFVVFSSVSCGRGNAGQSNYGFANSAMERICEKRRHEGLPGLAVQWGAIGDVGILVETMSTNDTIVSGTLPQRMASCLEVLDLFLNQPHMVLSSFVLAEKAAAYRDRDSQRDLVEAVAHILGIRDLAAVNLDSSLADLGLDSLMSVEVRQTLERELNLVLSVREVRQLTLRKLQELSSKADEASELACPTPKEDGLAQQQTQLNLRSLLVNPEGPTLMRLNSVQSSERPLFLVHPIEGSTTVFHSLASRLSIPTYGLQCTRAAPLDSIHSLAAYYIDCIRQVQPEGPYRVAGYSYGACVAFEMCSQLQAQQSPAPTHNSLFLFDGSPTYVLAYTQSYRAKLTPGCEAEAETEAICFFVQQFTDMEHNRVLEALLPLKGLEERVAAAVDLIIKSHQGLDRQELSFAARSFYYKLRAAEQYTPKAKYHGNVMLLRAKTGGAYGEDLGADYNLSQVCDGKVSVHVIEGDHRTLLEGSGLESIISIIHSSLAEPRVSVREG

human FASN [2] = molecular target: T1, human FASN; assay: FASN Scintillation Proximity Flashplate Assay; settings: read-out: ACTIVITY (IC50, FASN Scintillation Proximity Flashplate Assay); human FASN purified from SKBR3 cells; unstarred symbols
Description: as §1, with “inhibitors. The cells were lysed by sonication, and the cell debris was removed by centrifugation at 20,000 rpm for 30 min.” for “inhibitors.”
Acetyl-coenzyme A, malonyl-coenzyme A, NADPH, bovine gamma globulin, and ORLISTAT were purchased from Sigma (St. Louis, Mo.). […] The plates were read in a Wallac 1450 Microbeta Plus liquid scintillation counter (Perkin Elmer, Waltham, Mass.), and counts per minute (CPM) were collected over 2 min. Each inhibitor well CPM was compared to the maximum FASN enzyme activity (Max) CPM and the background (Min) CPM, as measured by omission of FASN enzyme in the background well. % Inhibition values were calculated, and curves were fitted by a four-parameter logistic function to yield IC50 values: […]

| Compound | IC50 (human FASN [1]) [nM] | IC50 (human FASN [2]) [nM] |
| --- | --- | --- |
| N#CCN(C(=O)n1nnn(-c2c(F)cccc2F)c1=O)c1ccccc1 | 250 to 1000 | – |
| CCN(C(=O)n1nnn(-c2c(F)cccc2F)c1=O)c1ccc(NC(=O)CCCCCNC(=O)CCCC[C@@H]2SC[C@@H]3NC(=O)N[C@@H]32)cc1F | – | < 15 |

Source: patent publication US9346769B2, “Tetrazolones as inhibitors of fatty acid synthase” (Infinity Pharmaceuticals, Inc., priority 2010, dated 2016)
